The values below are quoted from earlier work in US20030105046A1, “Interleukin converting enzyme (ICE) and central nervous system damage” (The General Hospital Corporation, priority 1997, published 2003).

The target of the series is T1, CPP32/Yama/Apopain (Homo sapiens, UniProt P42574).
T1 sequence (P42574 29-175 limits assumed): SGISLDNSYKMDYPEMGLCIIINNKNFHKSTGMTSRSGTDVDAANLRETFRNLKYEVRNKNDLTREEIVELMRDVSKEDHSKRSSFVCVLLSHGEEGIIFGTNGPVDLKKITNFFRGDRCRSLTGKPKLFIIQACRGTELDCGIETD
T1 sequence (P42574 176-277 limits assumed): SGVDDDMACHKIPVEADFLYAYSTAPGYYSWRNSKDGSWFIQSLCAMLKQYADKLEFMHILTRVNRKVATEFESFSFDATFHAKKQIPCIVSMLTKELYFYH
Particulars: Nicholson et al., Nature 376 (1995); cited from earlier work.

In the case of Ac-DEVD-CHO, the “Dose inhibiting PARP cleavage” value is 1 nM.
